# Ab-14 heavy chain CDR variants: yeast mating affinities

Source: Engelhart et al. 2022 (doi:10.1038/s41597-022-01779-4), MIT Lincoln Laboratory and A-Alpha Bio; data file from the FLAb repository.

Antigen: PDVDLGDISGINAS, a 14-residue peptide of the SARS-CoV-2 spike HR2 region.

Parent: Ab-14, a human scFv built as VH, a 15-residue (Gly4Ser)3 linker, VL. Only the CDRs of the heavy chain vary.
VH: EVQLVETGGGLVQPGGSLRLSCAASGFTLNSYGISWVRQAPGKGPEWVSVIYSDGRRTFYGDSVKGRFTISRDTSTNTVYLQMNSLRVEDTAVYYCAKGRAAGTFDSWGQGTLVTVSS
VL: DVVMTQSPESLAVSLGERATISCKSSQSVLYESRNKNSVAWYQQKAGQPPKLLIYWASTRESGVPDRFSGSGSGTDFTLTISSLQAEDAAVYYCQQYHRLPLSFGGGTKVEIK

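The parent was found by panning a naive human phage display library on the peptide. Variants in AAYL49 differ from the parent at up to three CDR positions; double and triple changes were sampled at random. The assay is AlphaSeq: two haploid yeast populations carry antibody and antigen on their surface. The frequency of each diploid, read from paired DNA barcodes, reflects how well the two displayed proteins bind. Each replicate has its own calibration line, from reference interactions of the BCL2 family. The assay was run in three technical replicates.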

Positions count from residue 1 of the parent VH; N30M puts M in place of N.
This list gathers variants with a substitution at G103 (VH, numbered from residue 1).
The read-out is the apparent dissociation constant on a log10 scale (nM): the lower, the stronger.
The mean shown is taken over the replicates in which the pair was detected.
An entry "nd" has no value in the source: the pair was not observed among the diploids in that replicate. This suggests poor binding but is not conclusive.
For reference, the parent read 0.65 as the reference entry and 4.11 (one replicate of three) as a member of this library.
Three control strains display no target. For library AAYL49, 15% of the pairings with them gave a signal, with a median of 4.06 and one signal in twenty below 2.83, so weak values seen in few replicates may be background. For each scFv, signals with the empty controls are counted beside the result.

- N30M/K65H/G103C -> 1.44, 1.42, 1.25 (mean 1.37; controls 0 of 9)
- F27G/A102F/G103W -> nd, nd, nd (controls 0 of 9)
- V50M/G103T -> nd, nd, 5.17 (controls 1 of 9)
- D54S/T58H/G103P -> nd, 2.56, 3.04 (mean 2.80; controls 3 of 9)
- F27Q/N30H/G103Y -> nd, nd, nd (controls 0 of 9)
- G103C/F105M -> nd, nd, nd (controls 0 of 9)
- Y32H/A101N/G103L -> nd, nd, nd (controls 1 of 9)
- I51K/R100S/G103R -> nd, 4.80, nd (controls 0 of 9)
- F59Q/V64Q/G103A -> nd, nd, nd (controls 1 of 9)
- L29H/G103P/S107W -> 5.50, nd, nd (controls 7 of 9)
- I34A/R100I/G103P -> 3.50, nd, nd (controls 2 of 9)
- S31W/A101E/G103F -> nd, nd, nd (controls 1 of 9)
- L29S/G103S/S107A -> 3.62, 2.45, nd (mean 3.03; controls 0 of 9)
- G33C/Y52R/G103P -> 4.30, 4.63, 3.75 (mean 4.23; controls 4 of 9)
- Y32W/G103H/F105E -> 4.41, nd, nd (controls 1 of 9)
- S53Q/G103L -> 4.65, 2.20, nd (mean 3.43; controls 3 of 9)
- L29I/V50Q/G103M -> nd, nd, nd (controls 0 of 9)
- L29I/T58C/G103R -> nd, nd, nd (controls 1 of 9)
- R56K/G103L/F105C -> 1.13, 1.23, 1.28 (mean 1.22; controls 1 of 9)
- G55C/G103E -> nd, nd, nd (controls 0 of 9)
- S53T/G103V/F105A -> nd, 2.93, 5.17 (mean 4.05; controls 1 of 9)
- T28S/G61F/G103I -> nd, nd, nd (controls 1 of 9)
- S63H/V64S/G103N -> nd, nd, nd (controls 1 of 9)
- T28Q/G103A/T104P -> 2.06, 1.83, 2.23 (mean 2.04; controls 2 of 9)
- G26Y/G103Q/D106I -> nd, nd, nd (controls 3 of 9)
- G103F/S107Q -> 0.44, 0.64, 0.54 (mean 0.54; controls 3 of 9)
- A101K/G103N/T104L -> nd, nd, nd (controls 0 of 9)
- I51V/Y52S/G103T -> nd, nd, nd (controls 0 of 9)
- G33T/F59W/G103C -> nd, nd, 3.16 (controls 0 of 9)
- R56N/A101Y/G103M -> nd, nd, nd (controls 3 of 9)
- S35C/G103V/D106Y -> nd, nd, nd (controls 2 of 9)
- S53I/S63Y/G103T -> nd, nd, nd (controls 1 of 9)
- Y52W/G103T -> 5.92, nd, nd (controls 6 of 9)
- L29Q/G103E/D106C -> nd, nd, nd (controls 0 of 9)
- N30Y/G103M/T104H -> nd, nd, nd (controls 2 of 9)
- G26W/D62H/G103W -> nd, nd, nd (controls 2 of 9)
- Y32I/S35P/G103A -> nd, nd, nd (controls 2 of 9)
- D54S/G99P/G103M -> nd, nd, nd (controls 2 of 9)
- I34Y/G103H/S107R -> 5.26, 4.15, 4.12 (mean 4.51; controls 7 of 9)
- Y32R/Y60P/G103C -> nd, nd, nd (controls 1 of 9)
- Y52N/G103K -> nd, nd, nd (controls 0 of 9)
- G61K/R100K/G103W -> nd, nd, 3.34 (controls 6 of 9)
- S31L/R100N/G103V -> 1.97, 2.02, 2.64 (mean 2.21; controls 0 of 9)
- V64Y/G103T/F105G -> nd, nd, 5.79 (controls 3 of 9)

Extract of 3 entries:

{"changes": "L29H/G103P/S107W", "log10 Kd, replicates": "5.50, nd, nd", "log10 Kd (nM), mean": "5.50", "signal with controls": "7 of 9"}
{"changes": "S35C/G103V/D106Y", "log10 Kd, replicates": "nd, nd, nd", "log10 Kd (nM), mean": "nd", "signal with controls": "2 of 9"}
{"changes": "Y52N/G103K", "log10 Kd, replicates": "nd, nd, nd", "log10 Kd (nM), mean": "nd", "signal with controls": "0 of 9"}